# Results published in patent publication US20230201118A1, “PRODRUG COPOLYMERS AND POLYMERIC MICELLES THEREOF FOR THE DELIVERY OF SHORT-CHAIN FATTY ACIDS, THE PROMOTION OF GUT HEALTH, AND THE TREATMENT OF IMMUNE AND/OR INFLAMMATORY CONDITIONS AND FOOD ALLERGY” (The University of Chicago, priority 2021, published 2023).
# Conditions: at the block size ratios used
row,Substance,butyrate by weight [%]
1,poly(2-hydroxypropyl methacrylamide)-b-poly(N-(2-butanoyloxyethyl) methacrylamide) [pHPMA-b-pBMA],28
2,poly(methacrylic acid)-b-poly(N-(2-butanoyloxyethyl) methacrylamide) [pMAA-b-pBMA],28
